Test results published in patent US20070282004A1, “Use of a Cyclopentenone Prostaglandin for Delaying for the Onset and/or Preventing the Continuation of Labour” (Imperial College Innovations Limited, priority 2003, published 2007).
Entries after “also recorded” stand apart in the source; their conditions may differ.

By UniProt entry, the sequences of proteins in these tests, tags left out.
UniProt P37231, whole entry, species assumed: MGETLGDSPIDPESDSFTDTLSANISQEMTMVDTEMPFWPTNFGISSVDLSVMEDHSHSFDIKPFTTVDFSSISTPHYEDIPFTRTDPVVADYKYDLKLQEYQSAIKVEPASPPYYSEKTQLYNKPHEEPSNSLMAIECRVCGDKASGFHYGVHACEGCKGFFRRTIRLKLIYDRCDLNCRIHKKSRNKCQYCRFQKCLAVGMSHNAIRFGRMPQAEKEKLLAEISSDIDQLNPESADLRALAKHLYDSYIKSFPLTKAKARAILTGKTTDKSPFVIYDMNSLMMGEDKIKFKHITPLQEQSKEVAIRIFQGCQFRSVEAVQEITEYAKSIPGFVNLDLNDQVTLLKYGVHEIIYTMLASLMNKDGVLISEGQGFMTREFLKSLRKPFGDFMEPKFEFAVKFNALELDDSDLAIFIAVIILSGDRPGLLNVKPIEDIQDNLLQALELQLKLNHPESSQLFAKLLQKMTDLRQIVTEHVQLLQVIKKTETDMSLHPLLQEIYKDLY

Molecular target: PPAR-γ (Homo sapiens, UniProt P37231)
Assay: PPRE reporter (3-PPRE-TK.pGL3) with PPAR-γ expression construct
Details: myometrial and amnion cells, PPAR-γ overexpressed, 10 mM or 20 mM, 24 h

PPAR-γ-mediated transcription of a PPRE-dependent reporter: potentiate; also recorded: potentiating
SMILES: CN(CCOc1ccc(C[C@H](Nc2ccccc2C(=O)c2ccccc2)C(=O)O)cc1)c1ccccn1 [GW1929]
